This is an account of results in ChEMBL document CHEMBL4680299, “Lead optimization of the VU0486321 series of mGlu PAMs. Part 4: SAR reveals positive cooperativity across multiple mGlu receptor subtypes leading to subtype unselective PAMs” (Bioorg Med Chem Lett, 2021).

By UniProt entry, the sequences of proteins in these tests, tags left out. Where a name states a change or a piece, a line headed by the entry shows the natural chain unless it says otherwise.
UniProt Q14832: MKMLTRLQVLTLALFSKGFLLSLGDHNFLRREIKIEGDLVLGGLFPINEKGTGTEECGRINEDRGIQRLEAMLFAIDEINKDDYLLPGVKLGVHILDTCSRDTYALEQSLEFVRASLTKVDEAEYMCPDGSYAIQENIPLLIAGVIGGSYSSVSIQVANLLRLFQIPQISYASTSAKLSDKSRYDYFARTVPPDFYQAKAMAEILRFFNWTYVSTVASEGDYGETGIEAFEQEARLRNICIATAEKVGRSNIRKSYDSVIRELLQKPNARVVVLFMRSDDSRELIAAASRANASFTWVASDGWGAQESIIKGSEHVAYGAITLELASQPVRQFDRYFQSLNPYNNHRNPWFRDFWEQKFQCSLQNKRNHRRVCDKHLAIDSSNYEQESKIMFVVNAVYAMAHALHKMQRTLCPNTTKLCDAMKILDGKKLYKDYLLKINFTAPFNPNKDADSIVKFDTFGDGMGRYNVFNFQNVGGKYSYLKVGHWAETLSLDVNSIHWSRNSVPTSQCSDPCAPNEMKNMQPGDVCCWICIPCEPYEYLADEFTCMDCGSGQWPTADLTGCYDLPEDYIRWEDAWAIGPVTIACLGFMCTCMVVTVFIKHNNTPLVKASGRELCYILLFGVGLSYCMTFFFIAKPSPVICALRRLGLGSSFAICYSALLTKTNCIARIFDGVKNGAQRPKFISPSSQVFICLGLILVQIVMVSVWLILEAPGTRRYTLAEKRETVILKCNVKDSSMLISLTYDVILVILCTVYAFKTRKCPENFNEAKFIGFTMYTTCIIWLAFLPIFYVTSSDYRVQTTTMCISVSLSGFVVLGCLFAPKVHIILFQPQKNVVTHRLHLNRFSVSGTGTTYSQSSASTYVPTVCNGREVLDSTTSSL
UniProt Q14416: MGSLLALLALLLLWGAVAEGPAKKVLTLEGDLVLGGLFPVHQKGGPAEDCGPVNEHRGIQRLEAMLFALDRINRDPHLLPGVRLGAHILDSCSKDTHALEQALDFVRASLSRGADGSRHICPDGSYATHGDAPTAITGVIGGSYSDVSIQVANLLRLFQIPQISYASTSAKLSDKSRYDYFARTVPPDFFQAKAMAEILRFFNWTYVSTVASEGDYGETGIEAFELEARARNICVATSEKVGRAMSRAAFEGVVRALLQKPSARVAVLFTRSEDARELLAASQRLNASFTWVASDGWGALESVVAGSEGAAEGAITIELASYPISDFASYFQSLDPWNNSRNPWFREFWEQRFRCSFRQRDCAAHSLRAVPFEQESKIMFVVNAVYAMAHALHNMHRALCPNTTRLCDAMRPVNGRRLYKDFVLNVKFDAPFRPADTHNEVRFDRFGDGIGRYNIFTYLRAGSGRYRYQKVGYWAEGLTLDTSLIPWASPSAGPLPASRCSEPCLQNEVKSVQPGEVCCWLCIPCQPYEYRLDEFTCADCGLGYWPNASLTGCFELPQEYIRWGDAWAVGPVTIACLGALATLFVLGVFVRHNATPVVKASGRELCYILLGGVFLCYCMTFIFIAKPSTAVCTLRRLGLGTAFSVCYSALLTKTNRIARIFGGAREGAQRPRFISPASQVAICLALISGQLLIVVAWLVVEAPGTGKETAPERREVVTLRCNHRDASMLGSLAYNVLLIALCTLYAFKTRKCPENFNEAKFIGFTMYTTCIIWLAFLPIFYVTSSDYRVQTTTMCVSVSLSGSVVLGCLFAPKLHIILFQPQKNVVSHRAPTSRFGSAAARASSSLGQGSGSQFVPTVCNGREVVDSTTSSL

Each structure is given as a SMILES string. Active and inactive are the calls of the source. The calls are words filed in the database; no cut-off is given here.

Experiment [1] deals with Metabotropic glutamate receptor 3 (Homo sapiens, UniProt Q14832). Kind of experiment: Positive allosteric modulation of mGluR3 (unknown origin) at 10 uM in presence of glutamate by calcium mobilization assay. The format is functional.
Experiment [2] has as its target Metabotropic glutamate receptor 2 (Homo sapiens, UniProt Q14416). Kind of experiment: Positive allosteric modulation of mGluR2 (unknown origin) at 10 uM in presence of glutamate by calcium mobilization assay. The format is functional.

As to `Cc1cc(NC(=O)c2occc2C)c(F)cc1N1C(=O)c2ccccc2C1=O`, the result in experiment [1] and in experiment [2] was inactive.
